The list is not random: actives were taken first. Their share in the collection is about 1.2%.
Arr AP2 block: inhibitors of beta-arrestin/AP2 binding, primary screen, biochemical, GPCR trafficking, flow cytometry | 0.31% of 340,000 active | FITC-arrestin peptide / GST-AP2 beads; AP2 beta2 appendage carries R879A mutation | beta-arrestin 1 C-terminal peptide binding to AP2 beta2-adaptin appendage (human) | inhibition, % at 10 µM;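 active = inhibition above a set limit, near 3 SD of compounds lacking own fluorescence, cut at about 54% in these data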;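 also: plate controls were DMSO wells for no effect and 5 µM unlabelled arrestin peptide for full effect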
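test system = AP2 appendage R879A on GSH beads | buffer or medium = PBS plus Tween 20 (0.05%) and BSA (0.1%) | incubation = 12 min plus 1 h, RT | detection = bead flow cytometry, FITC channel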
UUG fidelity: alters start codon recognition fidelity in yeast | S. cerevisiae UUG-firefly luciferase reporter, luminescence/redox ratio | activity score, % at 18.7 µM | 350,000 compounds, 0.13% hits | AID 602363;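 active = replicate mean at a twofold rise or more, about +100% in these data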;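 note: firefly luciferase made from a UUG start codon reports start codon fidelity; reporter light over untreated wells divided by growth signal over untreated wells; some hits fall short of that in this replicate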
TbMetRS inhib: T. brucei MetRS inhibitors, primary screen, biochemical, luminescence. methionyl-tRNA synthetase (Trypanosoma brucei brucei). purified T. brucei MetRS, ATP depletion, Kinase-Glo luminescence. inhibition, % at 11.9 µM. 0.4% of 360,000 active;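 active = inhibition above a per-plate cutoff of the control wells' mean inhibition plus 3 SD, cut at about 5.5% in these data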;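 also: 0% = DMSO wells median and 100% = median of wells with control inhibitor compound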
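technique = Kinase-Glo luminescence, ATP depletion format | system = purified MetRS (methionyl-tRNA synthetase) enzyme from Trypanosoma brucei | timing = 15 min preincubation, 2 h reaction, all 25 °C | evaluation = percent inhibition versus plate control medians | dosing = single dose, 11.9 µM final nominal, 0.9% final DMSO | also added = substrates ATP, L-methionine and bulk Escherichia coli tRNA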
Pemphigus Ab inh: inhibitors of pemphigus antibody binding to DSG3, primary screen, biochemical, bead-based, flow cytometry, scFv-GFP | Desmoglein-3 (Homo sapiens), P32926 | DSG3-coupled beads, scFv-anti-DSG3-GFP binding; stronger effect = lower value | binding (percent of control), % at 10 µM | 0.48% of 310,000 active;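 active = binding more than 3 SD below its plate's average and above zero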;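 also: hits lower antibody fragment binding to DSG3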
Rce1 inhib: yeast Rce1p protease inhibitors, primary screen, biochemical, fluorescence, cell-free homogeneous; calls only; 0.27% of 290,000 active; AID 2563, 2010; yeast membranes, quenched prenylated peptide cleavage fluorescence;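 active = fall in fluorescence gain of 50% or more versus controls, with final raw signal at or below 3038400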;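 also: plate controls were neutral control wells for no effect and wells lacking membranes for full effect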
Tb MetRS conf: T. brucei MetRS inhibitors, confirmation, biochemical, luminescence. inhibition, % at 11.9 µM. T. brucei MetRS enzyme, luminescence (ATP depletion). AID 624412, 2012. 93% of 1,400 active. shares compounds with TbMetRS inhib; in the data active = inhibition above about 7%
Jurkat tox: Jurkat T cell cytotoxicity, cytotoxicity control for T. brucei MetRS inhibitor project, luminescence, high throughput | shares compounds with TbMetRS inhib | Jurkat cells viability, ATP luminescence | inhibition, % at 8.3 µM | 12% of 1,400 active | AID 624413, 2012; in the data active = inhibition above about 15%;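 also: 0% = vehicle and 100% = reference inhibitor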
Tb MetRS inh FP: T. brucei MetRS inhibitors, orthogonal assay for T. brucei MetRS inhibitor project, biochemical, fluorescence polarization | purified T. brucei MetRS | shares compounds with TbMetRS inhib | inhibition, % at 11.9 µM | 44% of 1,400 active | AID 651607, 2012; in the data active = inhibition above about 17%;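 also: 0% = vehicle wells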
An asterisk follows results filed as active.

Screening O=C(C[C@H]1C[C@@H]2c3cc(NC(=O)CC4CC4)ccc3O[C@@H]2[C@H](CO)O1)NCc1ccccc1F returned UUG fidelity 2.
Screening COc1cccc(S(=O)(=O)N[C@@H]2CC[C@@H](CC(=O)NCc3ccccc3)O[C@@H]2CO)c1 returned UUG fidelity -3.
`Cc1ccc2[nH]c3c(c2c1)CCc1cn[nH]c1-3` gave Arr AP2 block 5, UUG fidelity -8, TbMetRS inhib 22*, Pemphigus Ab inh 109, Rce1 inhib inactive, Tb MetRS conf 12*, Jurkat tox 2 and Tb MetRS inh FP 47*.
For N#C/C(=C\C=C\c1ccccc1[N+](=O)[O-])C(=O)NCc1ccccc1 the results were Arr AP2 block 9, UUG fidelity -2, TbMetRS inhib 13*, Rce1 inhib inactive, Tb MetRS conf 30*, Jurkat tox 77* and Tb MetRS inh FP 12.
For O=C(Cc1ccccc1)N/N=C/C=C/c1ccccc1[N+](=O)[O-] the results were Arr AP2 block 2, UUG fidelity 12, TbMetRS inhib 7.0*, Pemphigus Ab inh 107, Rce1 inhib inactive, Tb MetRS conf 11*, Jurkat tox 8 and Tb MetRS inh FP 10.
`CO[C@@H]1CN(C)C(=O)c2cc(NC(=O)Nc3cc(F)ccc3F)ccc2OC[C@H](C)N(C(=O)c2cnccn2)C[C@@H]1C` gave UUG fidelity -7, TbMetRS inhib 6.2*, Tb MetRS conf 14*, Jurkat tox 0 and Tb MetRS inh FP 1.
Screening CO[C@H]1CN(C)C(=O)c2cc(NC(=O)Nc3cc(F)ccc3F)ccc2OC[C@@H](C)N(C(=O)c2cnccn2)C[C@H]1C returned UUG fidelity 5.
For CCOC(=O)C(/C=C(\C#N)C(=O)OCC)=C(/N)N1CCN(c2ccc(Cl)cc2)CC1 the results were Arr AP2 block 17, UUG fidelity 33, TbMetRS inhib 40*, Pemphigus Ab inh 103, Rce1 inhib inactive, Tb MetRS conf 49*, Jurkat tox -3 and Tb MetRS inh FP 24*.
For O=C(CNC(=O)c1ccc(Br)o1)NCc1ccc(Cl)cc1Cl the results were Arr AP2 block -9, UUG fidelity -7, TbMetRS inhib 18*, Rce1 inhib inactive, Tb MetRS conf 45*, Jurkat tox -3 and Tb MetRS inh FP 15.
Screening CCCCn1c(SCC(=O)c2ccc(O)c(O)c2)nc2ccsc2c1=O returned TbMetRS inhib 0, Pemphigus Ab inh 104 and Rce1 inhib inactive.
O=C(O)CCCCCn1c(SCC(=O)c2ccc(O)c(O)c2)nc2ccsc2c1=O was read as Arr AP2 block 1, TbMetRS inhib 6.2*, Pemphigus Ab inh 126, Rce1 inhib inactive, Tb MetRS conf 14*, Jurkat tox 0 and Tb MetRS inh FP 36*.
Screening CC/C(O)=C1\C(=O)CCCC1=NCc1nc2ccccc2[nH]1 returned Arr AP2 block -5, UUG fidelity -13, TbMetRS inhib 8.9*, Rce1 inhib inactive, Tb MetRS conf 16*, Jurkat tox 2 and Tb MetRS inh FP 5.
`CC/C(O)=C1\C(=O)CCCC1=NCCc1nc2ccccc2[nH]1` gave Arr AP2 block -1, TbMetRS inhib 1, Pemphigus Ab inh 110 and Rce1 inhib inactive.
For O=C(C[C@H]1CC[C@H](NC(=O)c2cccnc2)[C@@H](CO)O1)NCc1ccc(Cl)c(Cl)c1 the results were UUG fidelity 16.
`Cc1ccc2nc(SCC(=O)Nc3ccc4[nH]c(=O)[nH]c4c3)[nH]c2c1` gave Arr AP2 block -7, UUG fidelity -14, TbMetRS inhib 1 and Pemphigus Ab inh 102.
`O=C(CSc1nc2ccccc2[nH]1)Nc1ccc(F)c(F)c1` gave Arr AP2 block -9, UUG fidelity -12, TbMetRS inhib 36*, Pemphigus Ab inh 87, Rce1 inhib inactive, Tb MetRS conf 51*, Jurkat tox 0 and Tb MetRS inh FP 26*.
`O=C(Cn1cnc2ccccc21)Nc1ccc(C(=O)O)cc1` gave Arr AP2 block 4, UUG fidelity -8, TbMetRS inhib 0, Pemphigus Ab inh 84 and Rce1 inhib inactive.
Screening O=C(CSc1nc2ncc(Cl)cc2[nH]1)NC1CCS(=O)(=O)C1 (stereo not given) returned Arr AP2 block 17, UUG fidelity -19, TbMetRS inhib 6.2*, Pemphigus Ab inh 107, Rce1 inhib inactive, Tb MetRS conf 22*, Jurkat tox -7 and Tb MetRS inh FP 5.
O=C(CSc1nc2ccc(Cl)cc2[nH]1)Nc1ccc2[nH]c(=O)[nH]c2c1 was read as Arr AP2 block 13, TbMetRS inhib 8.3*, Pemphigus Ab inh 104, Rce1 inhib inactive, Tb MetRS conf 33*, Jurkat tox -6 and Tb MetRS inh FP 15.
For O=C(CSc1nc2ccccc2[nH]1)Nc1ccccc1F the results were Arr AP2 block 2, UUG fidelity -18, TbMetRS inhib -1, Pemphigus Ab inh 94 and Rce1 inhib inactive.
Screening O=C(Cn1cnc2ccccc21)Nc1ccc(F)c(F)c1 returned Arr AP2 block 18, UUG fidelity -17, TbMetRS inhib 17*, Rce1 inhib inactive, Tb MetRS conf 30*, Jurkat tox 2 and Tb MetRS inh FP 12.
`COC(=O)CSc1nc2ncc(Cl)cc2[nH]1` gave Arr AP2 block 1, UUG fidelity -14, TbMetRS inhib 0 and Rce1 inhib inactive.
CO[C@@H]1CN(C)C(=O)c2ccc(NC(=O)c3cc(C)on3)cc2OC[C@@H](C)N(CC2CC2)C[C@@H]1C was read as UUG fidelity -16.
For C[C@H]1CN([C@@H](C)CO)C(=O)Cc2cc(NS(=O)(=O)c3cccs3)ccc2O[C@H]1CN(C)Cc1ccc2c(c1)OCO2 the results were UUG fidelity 6.

Retrieved by structure from above:
`COC(=O)CSc1nc2ncc(Cl)cc2[nH]1` gave Arr AP2 block 1, UUG fidelity -14, TbMetRS inhib 0 and Rce1 inhib inactive.
Screening O=C(Cn1cnc2ccccc21)Nc1ccc(F)c(F)c1 returned Arr AP2 block 18, UUG fidelity -17, TbMetRS inhib 17*, Rce1 inhib inactive, Tb MetRS conf 30*, Jurkat tox 2 and Tb MetRS inh FP 12.

Part of the list above in order of SMILES length, lowest first:
O=C(CSc1nc2ccc(Cl)cc2[nH]1)Nc1ccc2[nH]c(=O)[nH]c2c1 was read as Arr AP2 block 13, TbMetRS inhib 8.3*, Pemphigus Ab inh 104, Rce1 inhib inactive, Tb MetRS conf 33*, Jurkat tox -6 and Tb MetRS inh FP 15.
CO[C@@H]1CN(C)C(=O)c2ccc(NC(=O)c3cc(C)on3)cc2OC[C@@H](C)N(CC2CC2)C[C@@H]1C was read as UUG fidelity -16.
For C[C@H]1CN([C@@H](C)CO)C(=O)Cc2cc(NS(=O)(=O)c3cccs3)ccc2O[C@H]1CN(C)Cc1ccc2c(c1)OCO2 the results were UUG fidelity 6.

From PubChem
